Test results from paper PMC2725360 (Molecular cell, 2009).

Biological target: T1, NAE1-UBA3 (NEDD8 E1), wild type (human, UniProt Q13564 1-534; Q8TBC4 1-463)
T1 sequence (looked up) 1: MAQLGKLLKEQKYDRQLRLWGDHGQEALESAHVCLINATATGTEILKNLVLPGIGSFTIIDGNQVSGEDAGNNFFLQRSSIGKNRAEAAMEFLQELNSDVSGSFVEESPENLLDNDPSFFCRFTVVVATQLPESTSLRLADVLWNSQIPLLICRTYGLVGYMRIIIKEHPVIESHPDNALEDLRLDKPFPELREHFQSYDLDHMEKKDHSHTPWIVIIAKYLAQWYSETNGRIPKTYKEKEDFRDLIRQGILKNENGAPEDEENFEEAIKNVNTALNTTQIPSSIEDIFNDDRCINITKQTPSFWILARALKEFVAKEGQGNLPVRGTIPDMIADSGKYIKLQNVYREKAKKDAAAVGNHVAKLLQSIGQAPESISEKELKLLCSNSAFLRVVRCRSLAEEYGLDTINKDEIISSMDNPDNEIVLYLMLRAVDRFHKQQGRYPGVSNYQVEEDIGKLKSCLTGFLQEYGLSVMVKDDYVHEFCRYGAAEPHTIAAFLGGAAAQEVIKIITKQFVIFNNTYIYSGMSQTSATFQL
T1 sequence (looked up) 2: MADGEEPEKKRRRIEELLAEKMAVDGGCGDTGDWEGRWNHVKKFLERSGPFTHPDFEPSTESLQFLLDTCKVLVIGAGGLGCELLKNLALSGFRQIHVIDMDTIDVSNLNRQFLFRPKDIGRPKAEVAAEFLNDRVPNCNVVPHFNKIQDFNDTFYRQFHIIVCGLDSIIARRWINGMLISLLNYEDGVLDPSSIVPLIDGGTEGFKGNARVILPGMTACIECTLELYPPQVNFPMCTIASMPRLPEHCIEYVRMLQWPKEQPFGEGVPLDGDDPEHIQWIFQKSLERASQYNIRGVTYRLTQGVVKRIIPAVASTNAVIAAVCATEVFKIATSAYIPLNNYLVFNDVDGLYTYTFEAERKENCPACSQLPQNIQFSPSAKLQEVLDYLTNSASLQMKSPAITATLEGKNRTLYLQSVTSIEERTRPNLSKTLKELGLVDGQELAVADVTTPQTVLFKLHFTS
Assay: cell-based or functional assay

B1: UBE2F^core (domain or fragment, human)
chain: ATASDSTRRVSVRDKLLVKEVAELEANLPCTCKVHFPDPNKLHCFQLTVTPDEGYYQGGKFQFETEVPDAYNMVPPKVKCLTKIWHPNITETGEICLSLLREHSIDGTGWAPTRTLKDVVWGLNSLFTDLLNFDDPLNIEAAEHHLRDKEDFRNKVDDYIKRYAR
Km of 32P-NEDD8 transfer from E1 to E2, against wild-type UBE2F: ~18 fold
